{
  "sequences": {"note": "Sequences of proteins named here, by UniProt entry; tags and fusion partners are left off.", "UniProt Q14974, whole entry, looked up": "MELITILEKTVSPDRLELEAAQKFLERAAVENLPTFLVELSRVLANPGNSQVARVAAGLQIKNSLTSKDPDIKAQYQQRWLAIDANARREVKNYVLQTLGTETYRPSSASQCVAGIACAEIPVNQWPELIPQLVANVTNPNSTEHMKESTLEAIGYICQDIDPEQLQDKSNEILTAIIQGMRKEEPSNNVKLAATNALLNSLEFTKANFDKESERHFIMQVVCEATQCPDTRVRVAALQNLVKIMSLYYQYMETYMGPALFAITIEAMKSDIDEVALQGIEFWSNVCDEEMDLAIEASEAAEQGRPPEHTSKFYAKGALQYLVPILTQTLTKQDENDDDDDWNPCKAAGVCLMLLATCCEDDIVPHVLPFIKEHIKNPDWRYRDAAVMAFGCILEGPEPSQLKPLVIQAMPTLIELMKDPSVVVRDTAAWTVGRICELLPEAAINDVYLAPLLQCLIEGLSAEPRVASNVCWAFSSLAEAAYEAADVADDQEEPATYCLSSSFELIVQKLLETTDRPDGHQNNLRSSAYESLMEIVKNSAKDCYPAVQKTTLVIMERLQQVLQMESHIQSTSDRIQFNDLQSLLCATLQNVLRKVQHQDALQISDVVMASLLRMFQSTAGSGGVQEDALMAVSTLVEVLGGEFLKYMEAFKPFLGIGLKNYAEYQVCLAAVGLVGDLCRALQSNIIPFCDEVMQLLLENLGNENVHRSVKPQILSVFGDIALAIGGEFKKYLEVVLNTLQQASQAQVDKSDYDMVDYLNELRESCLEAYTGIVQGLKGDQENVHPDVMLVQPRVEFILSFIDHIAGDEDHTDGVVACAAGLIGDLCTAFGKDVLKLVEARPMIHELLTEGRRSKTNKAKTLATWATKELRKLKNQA"},
  "source": "PubChem BioAssay AID540263",
  "about": "(National Center for Advancing Translational Sciences (NCATS), 2011)",
  "note": "Screen size: about 340,000 compounds; about 100 (0.029%) were called active. Inconclusive results (about 8%) are left out. The sample as a whole holds a higher share of actives than the screen did. Values without a mark were called inactive. Calls follow the shape of the full dose curve. Potency is read from the fitted curve at half-maximal effect; tags tell the direction and shape of the fitted curve.",
  "data": [
    {"target": "Importin subunit beta-1 (Homo sapiens) (UniProt Q14974)", "assay": "qHTS Assay for Inhibitors of Rango (Ran-regulated importin-beta cargo) - Importin beta complex formation; also: nearly all actives have a fitted effect of over 15% in size;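 as to inhibition of complex formation: 0% = DMSO wells and 100% = buffer wells lacking importin beta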", "details": "Rango CFP/YFP FRET sensor + importin beta, 45 min; series mostly up to 92.2 µM; inhibition of complex formation: at the top concentration", "text": "NIH Molecular Libraries Probe Production Centers Network [MLPCN] NIH Chemical Genomics Center [NCGC] MLPCN Grant: R03 MH090808-01A1 Assay Submitter (PI): Petr Kalab NCGC Assay Overview: The small GTPase Ran regulates transport of macromolecules between the nucleus and the cytoplasm (nuclear transport) and has important functions in mitotic spindle assembly, nuclear envelope (NE) formation and nuclear pore complex (NPC) assembly. RanGTP gradient is thought to promote spindle assembly by providing a spatial clue to microtubule nucleation and Aurora A activation. Because the localized release and binding of importin alpha cargo relays this spatial clue to SAFs, inhibitors of the Rango - importin beta complex can then be used in further understanding their role in cell cycle specifically in mitosis progression. […] Activation of Aurora A has been linked to different types of cancer and a number of Aurora kinase inhibitors are being developed as potential canter therapeutics therefore, identified inhibitors of this complex could be developed into potential anti-mitotic probes for cancer treatment. Purified recombinant proteins Rango and importin beta were provided by the assay submitter. The assay used a fluorescence resonance energy transfer (FRET) Rango biosensor that contains the IBB of human snurportin 1 flanked by yellow fluorescent protein (EYFP) at the amino terminus and cerulean CFP10 at the carboxy terminus. […] Inhibitors will therefore be identified based on the ability to interfere with the FRET signal decrease. DMSO treated and no importin beta (buffer only) wells were used as negative and positive controls respectively. FRET readings were obtained at two time points. FRET reading prior to importin beta addition (pre-read) were used flag potential compound interference; FRET reading after importin beta addition (post-read) were used to identify inhibitors using the FRET ratio parameter.\nNCGC Assay Protocol Summary: Two and a half uL/well of Rango-buffer solution (50 nM Rango, 1x PBS, 1mM DTT, 0.02% Tween-20, 0.1% BSA final concentrations) was dispensed into 1536-well assay plates (Greiner, solid black medium-binding plates) with Aurora Discovery BioRAPTR Flying Reagent Dispenser (FRD; Beckton-Dickenson). Compound solution (23 nL) was transferred to the assay plate using Kalypsys pin tool equipped with a 1536-pin tool and incubated at room temperature for 5 min followed by a FRET pre-read using the PerkinElmer Envision plate reader. Two and a half uL/well of Importin beta - buffer solution (0.125 microM importin beta, 1x PBS, 1mM DTT, 0.02% Tween-20, 0.1% BSA final concentrations) were then added and incubated at room temperature giving a final reaction volume of 5uL. After 45min FRET post-read was obtained via the Envision plate reader using the same optics and settings as the pre-read (CFP/YFP optimized dual optical module D450/D505; excitation mirror CFP 430/24 nm; and emission filters CFP 486/10 nm and YFP 530/10 nm).", "units": {"inhibition of complex formation": "%"}, "values": [
      {"smiles": "C#CCOCCOCCOCCNc1nc(N2CCN(C(=O)Cn3cc(CCO)nn3)CC2)nc(N2CCN(C(=O)[C@H](CCCCN)n3cc(CCCC)nn3)CC2)n1", "inhibition of complex formation": 2.5},
      {"smiles": "O=S1(=O)CCOC[C@H](Cc2ccccc2)N1Cc1ccccc1Br", "inhibition of complex formation": 1.72},
      {"smiles": "Cc1nc2ccccc2c(C(=O)O)c1-c1ccccn1", "inhibition of complex formation": -3.52},
      {"smiles": "CC(C)(C)Nc1nc(-c2ccccn2)nc2ccccc12", "Potency": "58 µM (active)"},
      {"smiles": "Cc1ccc(Oc2nc(-c3ccccn3)nc3ccccc23)cc1", "inhibition of complex formation": 1.95},
      {"smiles": "COc1cc2c(cc1CNC[C@H]1O[C@@H](n3cnc(C(N)=O)n3)[C@H](O)[C@@H]1O)OCO2", "inhibition of complex formation": 0.344},
      {"smiles": "NC1=NOC(=O)C1C1CCCCC1", "note": "(centres undefined)", "inhibition of complex formation": 2.74},
      {"smiles": "NC(=S)NN=C1CCCC(C(F)(F)F)C1", "note": "(centres undefined)", "inhibition of complex formation": 0.299},
      {"smiles": "O=C(OC12CC3CC(CC(C3)C1)C2)c1ccc(NCc2cc(O)ccc2O)cc1", "inhibition of complex formation": 0.607},
      {"smiles": "O=C(O)c1ccc([N+](=O)[O-])cc1Sc1ccsc1", "inhibition of complex formation": -1.6},
      {"smiles": "CN(CCc1ccccc1)C(=O)c1cccc(NC(=O)Cc2cccc(NC(=O)C3CCCN(C(=O)C4CCC4)C3)c2)c1", "note": "(centres undefined)", "inhibition of complex formation": 1.49},
      {"smiles": "CN(C(=O)c1cccc(NC(=O)Cc2ccc(NC(=O)C3CCCN(C(=O)C4CC4)C3)cc2)c1)C1CC1", "note": "(centres undefined)", "inhibition of complex formation": 5.33},
      {"smiles": "C=CCN1C=C(C(=O)c2ccccc2)C(=O)CC1", "inhibition of complex formation": 1.13},
      {"smiles": "Cc1nc(Nc2ccccc2C)c2cnn(C)c2n1", "inhibition of complex formation": 0.799},
      {"smiles": "O=C(c1cccc(S(=O)(=O)N2CCCCCC2)c1)N1CCN(Cc2ccccc2)CC1", "inhibition of complex formation": 2.11},
      {"smiles": "C=CCOC(=O)N1CCC2CC1c1cc(-c3ccc(OC)cc3)ccc12", "note": "(centres undefined)", "inhibition of complex formation": -2.77},
      {"smiles": "O=C(NCCc1ccccc1)c1c[nH]c2ccc(F)cc2c1=O", "inhibition of complex formation": -0.0045},
      {"smiles": "COc1ccc(CCC(=O)Nc2ccc(Cl)c(S(=O)(=O)N3CCOCC3)c2)cc1OC", "inhibition of complex formation": -0.735},
      {"smiles": "O=C(CNC(=O)c1cc(S(=O)(=O)N2CCOCC2)ccc1N1CCCC1)Nc1ccc(F)c(F)c1", "inhibition of complex formation": 0.285},
      {"smiles": "Cc1ccc(NC(=O)C(C)OC(=O)C2CC3CCCC(C2)C3=O)cc1S(=O)(=O)N1CCOCC1", "note": "(centres undefined)", "inhibition of complex formation": -0.445},
      {"smiles": "Cn1cc(C2OC(=O)c3ccccc32)c2ccccc21", "note": "(centres undefined)", "inhibition of complex formation": -2.51},
      {"smiles": "O=C(Nc1ccc(S(=O)(=O)N2CCOCC2)cc1)C1CCN(S(=O)(=O)c2ccc(Cl)cc2)CC1", "inhibition of complex formation": -0.232},
      {"smiles": "CC1C(C)N(C(=O)CCl)c2ccccc2N1C(=O)CCl", "note": "(centres undefined)", "inhibition of complex formation": 2.49},
      {"smiles": "NS(=O)(=O)c1ccc(CCNC(=O)c2ccc(Cl)c(S(=O)(=O)N3CCCCCC3)c2)cc1", "inhibition of complex formation": -0.982},
      {"smiles": "O=C1c2ccccc2C(=O)N1CCCCCCN1C(=O)c2ccccc2C1=O", "inhibition of complex formation": -4.66},
      {"smiles": "CC(C)C[C@H]1CN([C@@H](CC(C)C)CN2CCC[C@@H]2CN2C(=O)C(=O)NC[C@@H]2Cc2ccccc2)C(=O)C(=O)N1CCc1ccccc1", "inhibition of complex formation": -4.53},
      {"smiles": "COc1ccc(-c2ccc3c(c2)C2CC3CCN2CCC#N)cc1", "note": "(centres undefined)", "inhibition of complex formation": -0.906},
      {"smiles": "CN(C)C(CNC(=O)c1cc2ccccc2o1)c1ccccc1", "note": "(centres undefined)", "inhibition of complex formation": 0.201},
      {"smiles": "CCCCNC1(C#N)CCN(Cc2ccccc2)CC1", "inhibition of complex formation": -0.281},
      {"smiles": "NC(=O)C1(Nc2ccccc2Cl)CCCC1", "inhibition of complex formation": 1.43},
      {"smiles": "COc1ccc(S(=O)(=O)N2CCc3ccccc32)cc1C(=O)Nc1cc(S(C)(=O)=O)ccc1Cl", "inhibition of complex formation": 1.2},
      {"smiles": "Cc1cc(NC(=O)C(C)SCC(=O)Nc2cccc(S(=O)(=O)N3CCCCCC3)c2)no1", "note": "(centres undefined)", "inhibition of complex formation": -13.4},
      {"smiles": "NC(=O)c1ncn([C@@H]2O[C@H](CN=C3NS(=O)(=O)c4ccccc43)[C@@H](O)[C@H]2O)n1", "inhibition of complex formation": 0.0699},
      {"smiles": "Cc1cc([N+](=O)[O-])c(=O)[nH]c1C", "inhibition of complex formation": -4.18},
      {"smiles": "O=C1OC(Cc2ccccc2)C(c2ccccc2)C1=O", "note": "(centres undefined)", "inhibition of complex formation": 1.66},
      {"smiles": "O=C(Nc1ccn(CCCNCc2ccc3[nH]ccc3c2)c(=O)n1)OCc1ccccc1", "inhibition of complex formation": 1},
      {"smiles": "CCCCNCCS(=O)(=O)NCc1ccccc1", "inhibition of complex formation": -2.8},
      {"smiles": "CNc1nc(=O)n(C2CCCO2)cc1C", "note": "(centres undefined)", "inhibition of complex formation": -3.1},
      {"smiles": "S=C(Nc1ccccc1)Nc1ccc2ccccc2c1", "inhibition of complex formation": -0.599},
      {"smiles": "COc1ccc(S(=O)(=O)N2C[C@H]3CON(C)[C@H]3C[C@H]2c2cccc(Br)c2)cc1", "inhibition of complex formation": 1.49},
      {"smiles": "Cc1ccc(-c2csc(C(C#N)=C(O)CN3CCN(C(=O)c4ccco4)CC3)n2)cc1", "inhibition of complex formation": -1.82},
      {"smiles": "Cc1ccc(S(=O)(=O)N2CCC(C(=O)N3CCCCCCC3)CC2)cc1", "inhibition of complex formation": 4.24},
      {"smiles": "CCCCC(=O)NC(c1ccc(OC)c(OC)c1)c1ccc2cccnc2c1O", "note": "(centres undefined)", "inhibition of complex formation": 1.17},
      {"smiles": "CCC1(C)COC(c2ccc(OC)c(OC)c2)OC1", "note": "(centres undefined)", "inhibition of complex formation": 0.785},
      {"smiles": "CCC(C)C1(C2CCCC2)NC(=O)NC1=O", "note": "(centres undefined)", "inhibition of complex formation": -3.68},
      {"smiles": "Cc1nn(-c2ccc(F)cc2)c(Cl)c1/C=C(/CCC(=O)O)c1nc2ccccc2s1", "inhibition of complex formation": -3.7},
      {"smiles": "COc1cc(OC)c(C(=O)NNC(=O)c2ccc(NS(=O)(=O)c3cccs3)cc2)cc1OC", "inhibition of complex formation": -0.772},
      {"smiles": "CC(=O)OCC1(O)CC23CCC4c5ccoc5CCC4(C)C2CCC1C3", "note": "(centres undefined)", "inhibition of complex formation": 0.228},
      {"smiles": "CC1CCCN(C(=O)Cn2c(=O)oc3cc(S(=O)(=O)N4CCCCC4C)ccc32)C1", "note": "(centres undefined)", "inhibition of complex formation": -0.022},
      {"smiles": "CCCCN(C(=O)CSCc1ccc(C)cc1)c1c(N)n(Cc2ccccc2)c(=O)[nH]c1=O", "inhibition of complex formation": -2.96},
      {"smiles": "OCC1(CO)CC2(C1)CC(CO)(CO)C2", "inhibition of complex formation": 2.26},
      {"smiles": "Cc1ccc(S(=O)(=O)CC(=O)Nc2nnc(C)s2)cc1", "Potency": "65.1 µM (active)"},
      {"smiles": "Cc1ccc(S(=O)(=O)CC(=O)Nc2sc(C)c(C)c2C(N)=O)cc1", "inhibition of complex formation": -2.87},
      {"smiles": "Cc1ccc(S(=O)(=O)CCC(=O)Nc2nnc(CC(C)C)s2)cc1", "inhibition of complex formation": -0.478}
    ]}
  ]
}
